Results reported in PMC13191471, “RNF126 writes a non-canonical ubiquitin code on midnolin to tune protein stability” (Acta Biochimica et Biophysica Sinica, 2026).

Target: T1, MIDN-His6, recombinant (human, UniProt Q504T8 1-468)
T1 construct: Midnolin (MIDN), cDNA amplified from HEK293T cells (full-length or truncated cDNA was cloned; this construct is named without limits); also called Midnolin; source: E. coli BL21 (DE3), purified (Ni-NTA agarose); not shown: His6, C-terminal, kept
T1 sequence (looked up): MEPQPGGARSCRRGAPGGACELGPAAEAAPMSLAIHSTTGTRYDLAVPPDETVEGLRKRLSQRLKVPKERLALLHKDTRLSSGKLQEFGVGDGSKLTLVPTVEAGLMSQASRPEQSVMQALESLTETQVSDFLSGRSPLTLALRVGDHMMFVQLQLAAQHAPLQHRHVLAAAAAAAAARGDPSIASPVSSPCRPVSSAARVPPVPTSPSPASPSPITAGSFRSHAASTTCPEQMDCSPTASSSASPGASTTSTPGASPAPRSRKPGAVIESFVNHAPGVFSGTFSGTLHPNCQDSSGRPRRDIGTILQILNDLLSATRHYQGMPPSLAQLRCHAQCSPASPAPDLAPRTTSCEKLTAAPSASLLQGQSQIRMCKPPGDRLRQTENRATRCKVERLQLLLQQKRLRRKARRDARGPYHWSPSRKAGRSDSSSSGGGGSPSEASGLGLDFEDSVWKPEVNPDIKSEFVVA
Test: pull-down; GST pull-down: 5 ug His6-tagged and 5 ug GST-tagged protein, glutathione Sepharose 4B, overnight at 4 C, 20 mM Tris-HCl pH 8.0, 100 mM NaCl, 5 mM MgCl2, 1 mM EDTA, 0.5% NP-40, 1 mM DTT, 10 mg/mL BSA; immunoblotting
Settings: both partners purified

binding result: binds
B1: GST-RNF126, recombinant (enzyme, human, UniProt Q9BV68 1-311, looked up)
chain: MAEASPHPGRYFCHCCSVEIVPRLPDYICPRCESGFIEELPEETRSTENGSAPSTAPTDQSRPPLEHVDQHLFTLPQGYGQFAFGIFDDSFEIPTFPPGAQADDGRDPESRRERDHPSRHRYGARQPRARLTTRRATGRHEGVPTLEGIIQQLVNGIITPATIPSLGPWGVLHSNPMDYAWGANGLDAIITQLLNQFENTGPPPADKEKIQALPTVPVTEEHVGSGLECPVCKDDYALGERVRQLPCNHLFHDGCIVPWLEQHDSCPVCRKSLTGQNTATNPPGLTGVSFSSSSSSSSSSSPSNENATSNS
notes: RNF126, E3 ubiquitin ligase, cDNA amplified from HEK293T cells (full-length or truncated cDNA was cloned; this construct is named without limits); also called recombinant RNF126; source: E. coli BL21 (DE3), purified (glutathione-Sepharose 4B); not shown: GST, N-terminal, kept
